Assay results as given in PubChem BioAssay AID1865 (National Center for Advancing Translational Sciences (NCATS), 2009).
The list shows a part of the results, in another mix than the full data. The source made the active and inactive calls. The call rests on the fitted dose curve; in most records, active means well fitted activation curve with a large enough effect; inconclusive means small, poorly fitted or top-dose-only effect; inactive means flat fitted curve, though single readings scatter.

assay: Quantitative High-Throughput Screen for Regulators of Epigenetic Control; details: murine LDR cells, GFP reporter derepression, 30 h; at 53.9 µM (top of the series) unless noted; further: % of control where 0% means no effect; nearly all actives have a fitted effect of over 60% in size
Source text: NIH Molecular Libraries Screening Centers Network [MLPCN] NIH Chemical Genomics Center [NCGC] MLSCN Grant: 1 X01 MH079860-01 Assay Provider: Elisabeth D. Martinez, University of Texas SW Medical Center NCGC Assay Overview: The Locus Derepression (LDR) assay detects the derepression or induction of a GFP reporter that is stably integrated in a genomic region of murine cells that is presumably silenced. Transcription of the GFP reporter is controlled by a CMV promoter, which normally is constitutively active. However, this cell line, termed LDR, was selected for lack of constitutive production of GFP. GFP production can be induced by incubating the cells with histone deacetylase or DNA methyltransferase inhibitors (Martinez et al., 2006). Compounds that derepress or induce this reporter locus are identified by enumerating GFP positive cells using a laser-scanning microplate cytometer (Auld et al., 2006). This assay was screened against the MLSMR earlier (AID 597; (Johnson et al., 2008) and has been rescreened here against the expanded collection.
NCGC Assay Protocol Summary: Three hundred LDR cells in 5 uL per well were dispensed into black, clear-bottom 1536-well plates. Twenty-three nL compound was transferred to the assay plate and cells were incubated 30 hours at 37 C. Medium was removed, cells were washed two times with PBS, and GFP-positive cells were enumerated as fluorescent objects between the sizes of 20 to 120 um width and depth using an Acumen Explorer. References Auld, DS, Johnson, RL, Zhang, YQ, Veith, H, Jadhav, A, Yasgar, A, Simeonov, A, Zheng, W, Martinez, ED, Westwick, JK, Austin, CP, Inglese, J (2006). Fluorescent protein-based cellular assays analyzed by laser-scanning microplate cytometry in 1536-well plate format. Methods Enzymol 414: 566-89. Johnson, RL, Huang, W, Jadhav, A, Austin, CP, Inglese, J, Martinez, ED (2008). A quantitative high-throughput screen identifies potential epigenetic modulators of gene expression. Anal Biochem 375: 237-48. Martinez, ED, Dull, AB, Beutler, JA, Hager, GL (2006). High-content fluorescence-based screening for epigenetic modulators. Methods Enzymol 414: 21-36.

| SMILES | GFP activation |
| --- | --- |
| Clc1n[nH]nc1-c1nn[nH][15n]1 | inactive: 1.03% |
| O=P1(Nc2ncccn2)COc2ccccc2OC1 | inactive: -2.71% |
| Nc1cccc([As](=O)(O)c2ccccc2)c1 | inactive: 1.05% |
| O=[As](O)(c1cccs1)c1cccs1 | inactive: 0% |
| Cc1ccc(OCC(=O)OC2CN3CCC2CC3)cc1 (stereo not given) | inactive: 2.54% |
| O=P1(Nc2ccc(Br)cn2)COc2ccccc2OC1 | inactive: -0.0893% |
| CC1CCC(C(C)C)C(OP(=O)(Nc2ccccn2)c2ccccc2)C1 (stereo not given) | inactive: -0.816% |
| Cc1nn(-c2ccccc2)c2c1P(=O)(N1CCOCC1)N(C)C(c1ccccc1)=N2 (stereo not given) | inactive: -0.98% |
| CN(C)C1(CNC(=O)c2ccc(S(C)(=O)=O)cc2)CCCCC1 | inactive: 0.152% |
| O=C(/C=C/c1ccccc1)OC1CN2CCC1CC2 (stereo not given) | inactive: -0.281% |
| CCOC(=O)Nc1cccc([As](=O)(O)O)c1 | inactive: -6.09% |
| O=P(Nc1ccccn1)(c1cccc2ccccc12)c1cccc2ccccc12 | inactive: -0.805% [at 10.1 µM] |
| Cc1cc(SC(NC=O)C(Cl)(Cl)Cl)ncn1 (stereo not given) | inactive: 5.9% |
| O=[N+]([O-])c1ccc(Nc2ccc(Oc3ccc([N+](=O)[O-])cc3[N+](=O)[O-])cc2)c([N+](=O)[O-])c1 | inactive: 2.99% |
| CCOC(=O)Nc1ccc([As](=O)(O)O)c(O)c1 | inactive: 0% |
| Cc1cc(SC(NC(=O)c2ccccc2)C(Cl)(Cl)Cl)nc(C(C)C)n1 (stereo not given) | inactive: 0% |
| CCOC(=O)c1ccc(NC(=O)C(C)(CCl)SC)cc1 (stereo not given) | inactive: 1.05% |
| CCC(C)N(CC(C)C)C(=S)SC(NC(C)=O)C(Cl)(Cl)Cl (stereo not given) | inactive: -2.06% |

| SMILES | GFP activation |
| --- | --- |
| COP1(=S)c2c(C)nn(CCC#N)c2N=C(c2ccc(F)cc2)N1C (stereo not given) | inactive: 1.08% |
| O=C(COc1ccccc1)OC1CN2CCC1CC2 (stereo not given) | inactive: -0.917% |
| COc1ccc(N/C(=N/P(=O)(N2CCOCC2)N2CCOCC2)N2CCOCC2)cc1 | inactive: 2.38% |
| Cc1c2c(nc3ccccc13)SC(C(Cl)Cl)C2 (stereo not given) | inactive: -0.99% |
| Cc1cc(=O)[nH]c(N[N+](=O)[O-])n1 | inactive: 0.0193% |
| O=C(OC1CN2CCC1CC2)C12CC3CC(CC(C3)C1)C2 (stereo not given) | inactive: 2.65% |
| COc1cc(I)ccc1[As](=O)(O)O | inactive: 2.1% |
| COc1ccc2nc(NP(=O)(c3ccccc3)c3ccccc3)sc2c1 | inactive: -3.5% |
| ClCCSc1nnc(-c2cccnc2)o1 | inactive: 0% |
| CC(C)c1ccc(OP(=O)(Nc2ccccn2)Oc2ccccc2F)cc1 (stereo not given) | inactive: 1.08% |
| O=[N+]([O-])c1cc([N+](=O)[O-])c(-c2ccn[nH]2)s1 | inactive: -6.11% |
| CC(C)NC(=O)NP(=O)(Oc1ccccc1)Oc1ccccc1 | inactive: -1.63% |
| CCN(CC)C(=S)SC(NC=O)C(Cl)(Cl)Cl (stereo not given) | inactive: -1.08% |
| O=[As](O)(c1ccc(O)cc1)c1ccccc1O | inactive: -0.99% |
| C[As](=O)(O)c1cccc(C(=O)O)c1 | inactive: 1.61% |
| Cc1ccc(OP(=O)(Nc2ccc([N+](=O)[O-])cn2)Oc2ccc(C)cc2)cc1 | inactive: 4.6% |
| Cc1ccc2nc3c(c(C)c2c1)CC(C(Cl)Cl)S3 (stereo not given) | inactive: 0% |
